{
  "sequences": {"note": "By UniProt entry, the sequences of proteins in these tests, tags left out. Where a name states a change or a piece, a line headed by the entry shows the natural chain unless it says otherwise.", "UniProt P97266, whole entry": "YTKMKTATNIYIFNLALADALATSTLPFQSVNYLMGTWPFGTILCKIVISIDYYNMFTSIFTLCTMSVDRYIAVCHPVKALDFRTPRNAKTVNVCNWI", "UniProt P41144": "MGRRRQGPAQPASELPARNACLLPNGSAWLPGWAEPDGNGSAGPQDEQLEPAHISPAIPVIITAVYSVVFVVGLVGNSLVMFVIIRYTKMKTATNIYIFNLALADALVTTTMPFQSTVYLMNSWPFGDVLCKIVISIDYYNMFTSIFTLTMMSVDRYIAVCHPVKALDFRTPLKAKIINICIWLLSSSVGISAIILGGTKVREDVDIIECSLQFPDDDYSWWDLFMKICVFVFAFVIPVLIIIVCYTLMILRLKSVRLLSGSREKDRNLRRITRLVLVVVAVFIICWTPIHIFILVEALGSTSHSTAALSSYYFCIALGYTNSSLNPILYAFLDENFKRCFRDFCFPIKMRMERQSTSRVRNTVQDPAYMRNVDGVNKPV"},
  "source": "ChEMBL document CHEMBL3862004",
  "about": "“A Cyclic Tetrapeptide (\"Cyclodal\") and Its Mirror-Image Isomer Are Both High-Affinity μ Opioid Receptor Antagonists” (J Med Chem, 2016)",
  "key": {"[1]": {"biological_target": "Mu-type opioid receptor (Cavia porcellus) (UniProt P97266)", "assay": "Antagonist activity at MOR in guinea pig ileum assessed as inhibition of TAPP-induced muscle contractions", "outline": "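Guinea pig ileum preparation. Each preparation was first run with a [Leu5]enkephalin standard dose–response curve for normalisation. Ke was derived from the ratio of TAPP IC50 with and without a fixed antagonist concentration. Mean of three to four determinations ± SEM.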"}, "[2]": {"biological_target": "Kappa-type opioid receptor (Cavia porcellus) (UniProt P41144)", "assay": "Antagonist activity at KOR in guinea pig ileum assessed as inhibition of U50,488-induced muscle contractions"}},
  "data": [
    {"smiles": "CCCC[C@@H]1NC(=O)[C@H](Cc2ccccc2)NC(=O)[C@@H](CCCNC(=N)N)NC(=O)[C@H](Cc2c(C)cc(O)cc2C)NC1=O", "values": [
      {"measurement": "Ke", "setting": "[1]", "value": 15.1, "unit": "nM"},
      {"measurement": "Ke", "setting": "[2]", "value": 49.7, "unit": "nM"}
    ]}
  ]
}
